pIC50: −log10 of the molar value.
Biological target: Dihydroorotate dehydrogenase (quinone), mitochondrial (Homo sapiens, UniProt Q02127)

Amino acid sequences for entries named in this document (tags omitted). A change or cut given only in a name is not applied to a line headed by its entry.
UniProt Q02127: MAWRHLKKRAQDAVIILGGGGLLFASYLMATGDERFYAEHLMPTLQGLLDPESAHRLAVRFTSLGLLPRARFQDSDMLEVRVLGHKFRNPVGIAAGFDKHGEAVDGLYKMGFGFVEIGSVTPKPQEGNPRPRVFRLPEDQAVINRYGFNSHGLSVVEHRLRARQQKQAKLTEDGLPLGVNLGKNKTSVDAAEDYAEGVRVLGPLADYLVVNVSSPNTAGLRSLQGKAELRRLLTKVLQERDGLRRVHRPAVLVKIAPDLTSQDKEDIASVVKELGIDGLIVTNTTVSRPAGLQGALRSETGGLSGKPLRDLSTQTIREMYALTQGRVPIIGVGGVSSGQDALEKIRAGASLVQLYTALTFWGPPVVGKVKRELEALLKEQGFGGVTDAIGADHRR

## Cc1cc(Nc2ccc(S(F)(F)(F)(F)F)cc2)n2nc(C(F)(F)F)nc2n1
  pIC50: 4.39

Source: ChEMBL document CHEMBL1955725, “Structure-guided lead optimization of triazolopyrimidine-ring substituents identifies potent Plasmodium falciparum dihydroorotate dehydrogenase inhibitors with clinical candidate potential” (J Med Chem, 2011)
